Assay results published in PubChem BioAssay AID504406 (Broad Institute, 2011).
The entries are a selection whose mix differs from that of the whole data set. Some tests of the compounds listed are not included; inactive here does not mean inactive elsewhere. Activity calls are given as the source filed them. Cut-off read from the data, not from the text of the source: active = inhibition above about 10% (passing the limit was not always enough); inconclusive = no clear call, values can overlap the other calls.

Protein sequences, listed by entry. Tags and fused reporters are not part of them.
UniProt P9WIQ1, whole entry: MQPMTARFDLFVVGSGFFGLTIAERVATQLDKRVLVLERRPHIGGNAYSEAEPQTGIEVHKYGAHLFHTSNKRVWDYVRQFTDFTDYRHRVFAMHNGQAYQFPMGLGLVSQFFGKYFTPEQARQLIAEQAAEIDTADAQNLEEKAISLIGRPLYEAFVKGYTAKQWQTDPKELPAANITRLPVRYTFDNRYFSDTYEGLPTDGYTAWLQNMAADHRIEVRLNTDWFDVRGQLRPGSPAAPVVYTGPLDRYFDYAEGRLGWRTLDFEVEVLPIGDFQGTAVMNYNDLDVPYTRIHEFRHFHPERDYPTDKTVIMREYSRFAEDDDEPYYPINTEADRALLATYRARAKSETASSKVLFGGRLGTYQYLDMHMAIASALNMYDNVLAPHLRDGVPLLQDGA

What follows are molecules tested against UDP-galactopyranose mutase (Mycobacterium tuberculosis (strain ATCC 25618 / H37Rv)) (UniProt P9WIQ1) (assay: M. tuberculosis UGM enzyme inhibitors, primary screen, biochemical, fluorescence polarization, single point (AID 504406)). Details: purified UGM, fluorescence polarization probe displacement; at 10 µM; hits give high values.

Structure (SMILES)	inhibition
C=CCN1CCN(CCOC(=O)C(O)(c2ccccc2)c2ccccc2)CC1	inactive: 0.73%
O=C(NCC1(N2CCCCC2)CCCCC1)c1cc(F)c(F)cc1Cl	inactive: -1.52%
Cc1cc(C(=O)NCC2(N3CCCCC3)CCCCC2)ccc1[N+](=O)[O-]	inactive: 1.16%
CCN1CCCC(OC(=O)C2(O)c3ccccc3C=Cc3ccccc32)C1 (centres undefined)	inactive: -1.12%
O=C(NCC1(N2CCCCC2)CCCCC1)c1cccc(Br)c1	inactive: -2.75%
COc1ccc(C(=O)NCC2(N(C)C)CCCCC2)cc1	inactive: 1.2%
Cc1ccccc1C(=O)NCC1(N2CCCCC2)CCCCC1	inactive: 0.302%
CN(C)C1CCCC1OC(=O)C(O)(c1ccccc1)c1ccccc1 (centres undefined)	inactive: -0.524%
CN(C)c1ccc(C(=O)NCC2(N(C)C)CCCCC2)cc1	inactive: 1.1%
CC(C)N1C(=O)CC2(CCN(CCOC(=O)C(O)(c3ccccc3)c3ccccc3)CC2)C1=O	inactive: -0.195%
CCN(CC)CC(C)C(C)OC(=O)C(O)(c1ccccc1)c1ccccc1 (centres undefined)	inactive: 1.42%
COc1cc(SC)ccc1C(=O)NCC1(N(C)C)CCCCC1	inactive: -1.53%
Cc1ccc(C(=O)NCC2(N3CCCCC3)CCCCC2)cc1	inactive: -1.13%
O=C(NCC1(N2CCCCC2)CCCCC1)c1cc([N+](=O)[O-])ccc1Cl	inactive: -2.5%
CN1[C@@H]2CC[C@H]1CC(OC(=O)C(O)(c1ccccc1)c1ccccc1)C2 (some centres undefined)	inactive: -0.394%
COc1ccc(Br)c(C(=O)NCC2(N3CCCCC3)CCCCC2)c1	inactive: -2.58%
CN(C)c1cccc(C(=O)NCC2(N(C)C)CCCCC2)c1	inactive: 4.75%
CC(C)Oc1ccc(C(=O)NCC2(N(C)C)CCCCC2)cc1	inactive: 4.02%
O=C(OC1CN2CCC1CC2)C(CO)(c1ccccc1)c1ccccc1 (centres undefined)	inactive: 0.435%
COc1cccc(C(=O)NCC2(N3CCCCC3)CCCCC2)c1	inactive: -0.276%
COc1ccc(Cl)cc1C(=O)NCC1(N(C)C)CCCCC1	inactive: -1.34%
O=C(NCC1(N2CCCCC2)CCCCC1)c1cccc(Cl)c1	inactive: -0.688%
CN(C)C1(CNC(=O)c2ccc(Br)cc2)CCCCC1	inactive: -1.16%
COc1cc(C(=O)NCC2(N(C)C)CCCCC2)c([N+](=O)[O-])cc1OC	inactive: -3.6%
